Amino acid sequences for entries named in this document (tags omitted). A change or cut given only in a name is not applied to a line headed by its entry.
UniProt Q15109: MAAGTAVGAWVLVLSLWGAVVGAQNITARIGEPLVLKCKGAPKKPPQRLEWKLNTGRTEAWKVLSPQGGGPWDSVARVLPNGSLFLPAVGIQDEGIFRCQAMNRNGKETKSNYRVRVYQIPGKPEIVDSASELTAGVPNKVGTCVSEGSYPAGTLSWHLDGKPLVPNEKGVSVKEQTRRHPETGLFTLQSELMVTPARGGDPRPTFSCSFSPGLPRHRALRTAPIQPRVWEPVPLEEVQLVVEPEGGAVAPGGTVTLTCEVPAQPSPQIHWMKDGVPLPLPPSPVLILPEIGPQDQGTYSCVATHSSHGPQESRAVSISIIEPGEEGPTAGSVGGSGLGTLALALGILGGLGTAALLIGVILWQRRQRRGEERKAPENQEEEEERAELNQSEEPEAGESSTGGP

According to ChEMBL document CHEMBL4028844, “Targeting the Receptor for Advanced Glycation Endproducts (RAGE): A Medicinal Chemistry Perspective” (J Med Chem, 2017):

Legend:
[1] = biological target: T1, Advanced glycosylation end product-specific receptor (Homo sapiens, UniProt Q15109); assay: Inhibition of amyloid beta binding to RAGE (unknown origin) by ELISA
[2] = biological target: T1, Advanced glycosylation end product-specific receptor; assay: Inhibition of […] binding to RAGE (unknown origin) by ELISA
[3] = biological target: T1, Advanced glycosylation end product-specific receptor; assay: Inhibition of CML binding to RAGE (unknown origin) by ELISA
[4] = biological target: T1, Advanced glycosylation end product-specific receptor; assay: Binding affinity to human RAGE cytoplasmic domain by tryptophan fluorescence assay

| Compound | IC50 [1] [µM] | IC50 [2] [µM] | IC50 [3] [µM] | Kd [4] [µM] |
| --- | --- | --- | --- | --- |
| CCCCOc1cc(C(=O)OCCN(CC)CC)ccc1NC(=O)[C@H](N)Cc1ccc2ccccc2c1 | 3.4 | 1.75 | 2.29 |  |
| COc1cc(NC(C)=O)c(Cl)cc1C(=O)Nc1nccs1 |  |  |  | 0.0003 |
| CC1=NN(c2nc3ccccc3[nH]2)C(=O)C1CCC(C)C (stereo not given) |  |  |  | 0.003 |
